In patent publication US20040053822A1, “Inducing cellular immune responses to mage2/3 using peptide and nucleic acid compositions” (priority 2002, published 2004):
Blank lines part the entries; values can stand above or below the compound they belong to.

Protein sequences, listed by entry. Tags and fused reporters are not part of them. Lines headed by an entry give the natural chain unless they say otherwise; changes in a name come on top. Residues count along the entry.
UniProt P01903, 26-254 limits assumed: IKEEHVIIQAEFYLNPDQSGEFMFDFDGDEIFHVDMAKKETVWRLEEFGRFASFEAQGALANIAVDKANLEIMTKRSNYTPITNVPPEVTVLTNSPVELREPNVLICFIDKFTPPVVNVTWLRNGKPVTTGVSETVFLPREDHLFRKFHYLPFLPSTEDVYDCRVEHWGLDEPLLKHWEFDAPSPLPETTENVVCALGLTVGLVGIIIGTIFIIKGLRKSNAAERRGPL
UniProt P04439, 25-365: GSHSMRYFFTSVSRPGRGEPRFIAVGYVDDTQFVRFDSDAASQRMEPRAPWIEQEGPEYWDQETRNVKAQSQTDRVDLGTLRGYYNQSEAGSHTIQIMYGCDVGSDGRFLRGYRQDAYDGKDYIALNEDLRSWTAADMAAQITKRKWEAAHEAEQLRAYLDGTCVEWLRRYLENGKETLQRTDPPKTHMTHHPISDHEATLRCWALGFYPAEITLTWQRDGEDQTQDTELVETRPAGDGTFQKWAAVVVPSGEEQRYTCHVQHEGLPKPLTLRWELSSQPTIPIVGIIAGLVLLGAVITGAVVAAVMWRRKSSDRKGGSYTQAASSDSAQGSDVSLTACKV
UniProt P01889: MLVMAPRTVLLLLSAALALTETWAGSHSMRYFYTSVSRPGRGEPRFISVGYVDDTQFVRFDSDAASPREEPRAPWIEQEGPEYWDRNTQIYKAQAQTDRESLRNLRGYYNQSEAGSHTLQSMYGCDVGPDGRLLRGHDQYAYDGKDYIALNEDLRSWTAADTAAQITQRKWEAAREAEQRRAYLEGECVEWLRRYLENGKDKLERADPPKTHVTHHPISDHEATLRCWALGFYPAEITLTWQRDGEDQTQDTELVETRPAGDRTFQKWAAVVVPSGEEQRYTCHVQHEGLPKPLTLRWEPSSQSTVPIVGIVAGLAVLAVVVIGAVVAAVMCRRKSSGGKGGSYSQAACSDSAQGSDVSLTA

Legend:
HLA-DRB1*0301 (DR3) = HLA-DRB1*0301 (DR3) (Homo sapiens, UniProt P01903+P01911, A100K/A102G/A103R/A169T/F55Y/I96L/K41T/L162R/M171V/P40S/Q125H/Q178H/Q39Y/R42S/S66N/T106N/T262R/W38E/Y61H); test: Purified HLA class II peptide binding assay, DRB1*0301; conditions: Mage 2/3 DR motif peptides; unit not given
HLA-A*0301 = HLA-A*0301 (Homo sapiens, UniProt P04439); test: Purified HLA class I peptide binding assay, A*0301; conditions: binding affinity, HLA-A3 supermotif-bearing peptides
HLA-A*1101 = HLA-A*1101 (Homo sapiens, UniProt P04439, A114D/D185E/E176A/F33Y/L180Q/S129P/T187R); test: Purified HLA class I peptide binding assay, A*1101; conditions: binding affinity, HLA-A3 supermotif-bearing peptides
HLA-A*3101 = HLA-A*3101 (Homo sapiens, UniProt P04439, A270S/D185E/E176V/E277Q/F33T/G231S/G80R/H175R/I121M/I218V/I322F/K168Q/L300P/L318F/M331R/P217A/Q94H/R138Q/T323A/T345S/T97I/V358M); test: Purified HLA class I peptide binding assay, A*3101; conditions: binding affinity, HLA-A3 supermotif-bearing peptides
HLA-A*3301 = HLA-A*3301 (Homo sapiens, UniProt P04439, A270S/D185E/E176V/E277Q/E87N/F33T/G231S/H175R/I121M/I218V/I322F/K168Q/K210R/L300P/L318F/M331R/P217A/Q86R/Q94H/R138Q/T323A/T345S/T97I/V358M/Y195H); test: Purified HLA class I peptide binding assay, A*3301; conditions: binding affinity, HLA-A3 supermotif-bearing peptides
HLA-A*6801 = HLA-A*6801 (Homo sapiens, UniProt P04439, A269V/D185E/E176V/E277Q/E87N/F33Y/G231S/I121M/I166T/I218V/L180W/L300P/L318F/N151K/P208A/P217A/Q86R/R169H/T345S); test: Purified HLA class I peptide binding assay, A*6801; conditions: binding affinity, HLA-A3 supermotif-bearing peptides; read-out: A*6801 nM
[1] = test system: A3-supertype alleles (A*0301, A*1101, A*3101, A*3301, and A*6801); test: A3-supertype cross-reactive binding (five alleles); design: species or system human
HLA-B*3501 = HLA-B*3501 (Homo sapiens, UniProt P01889, A329T/A93T/A95T/C349S/D201E/D98Y/E176V/E187L/E204Q/E69T/I218V/K202T/L119I/Q94N/R155S/R180L/S121R/S35A/S48A/T118I/V127L/V306I/V36M/Y140S/Y91F); test: Purified HLA class I peptide binding assay, B*3501; conditions: binding affinity, HLA-B7 supermotif-bearing peptides
HLA-B*5301 = HLA-B*5301 (Homo sapiens, UniProt P01889, A329T/A93T/A95T/C349S/D201E/D98Y/E176V/E187L/E204Q/E69T/G107R/I218V/K202T/L105A/L119I/N104I/Q94N/R106L/R155S/R180L/S101N/S121R/S35A/S48A/T118I/V127L/V306I/V36M/Y140S/Y91F); test: Purified HLA class I peptide binding assay, B*5301; conditions: binding affinity, HLA-B7 supermotif-bearing peptides
HLA-B*5401 = HLA-B*5401 (Homo sapiens, UniProt P01889, A329T/C349S/D138N/D201E/E176V/E187T/E204Q/E69G/I76V/K202T/L119W/R155S/R180L/S121T/S35A/S48A/V127L/V306I/V36M/Y140L); test: Purified HLA class I peptide binding assay, B*5401; conditions: binding affinity, HLA-B7 supermotif-bearing peptides; read-out: B*5401 nM
[2] = test system: B7-supertype molecules (B*0702, B*3501, B*5101, B*5301, and B*5401); test: B7-supertype cross-reactive binding (five alleles); design: species or system human

DR3 binding data (HLA-DRB1*0301 (DR3)): 0.0150
Compound: CC[C@H](C)[C@H](NC(=O)CNC(=O)[C@H](Cc1ccccc1)NC(=O)[C@@H](NC(=O)[C@H](CC(C)C)NC(=O)[C@@H](N)CCC(N)=O)C(C)C)C(=O)N[C@@H](CCC(=O)O)C(=O)N[C@@H](CC(C)C)C(=O)N[C@@H](CCSC)C(=O)N[C@@H](CCC(=O)O)C(=O)N[C@H](C(=O)N[C@@H](CC(=O)O)C(=O)N1CCC[C@H]1C(=O)N[C@H](C(=O)NCC(=O)O)[C@@H](C)CC)C(C)C

IC50 (HLA-A*0301): 262 nM | IC50 (HLA-A*1101): 77 nM | IC50 (HLA-A*3101): 720 nM | IC50 (HLA-A*3301): 433 nM | IC50 (HLA-A*6801): 15 nM | No. of A3 Alleles Crossbound [1]: 4
Compound: CC[C@H](C)[C@H](NC(=O)[C@@H](NC(=O)[C@@H](N)[C@@H](C)O)C(C)C)C(=O)N[C@@H](CC(N)=O)C(=O)N[C@@H](Cc1ccc(O)cc1)C(=O)N[C@H](C(=O)N[C@@H](CC(C)C)C(=O)N[C@@H](Cc1c[nH]c2ccccc12)C(=O)N[C@@H](CCCNC(=N)N)C(=O)O)[C@@H](C)O

IC50 (HLA-B*3501): > 10000 nM | IC50 (HLA-B*5301): 358 nM | IC50 (HLA-B*5401): 313 nM | No. of B7 Alleles Crossbound [2]: 4
Compound: CC[C@H](C)[C@H](NC(=O)[C@H](CC(C)C)NC(=O)[C@H](CC(C)C)NC(=O)CNC(=O)[C@H](C)NC(=O)[C@H](CCCCN)NC(=O)[C@@H]1CCCN1C(=O)[C@@H](N)CCSC)C(=O)O

DR3 binding data (HLA-DRB1*0301 (DR3)): 0.0058
Compound: CC[C@H](C)[C@H](NC(=O)[C@H](CCCCN)NC(=O)[C@H](CCC(=O)O)NC(=O)[C@@H](N)CCC(=O)O)C(=O)N[C@@H](Cc1c[nH]c2ccccc12)C(=O)N[C@@H](CCC(=O)O)C(=O)N[C@@H](CCC(=O)O)C(=O)N[C@@H](CC(C)C)C(=O)N[C@@H](CO)C(=O)N[C@H](C(=O)N[C@@H](CC(C)C)C(=O)N[C@@H](CCC(=O)O)C(=O)N[C@H](C(=O)N[C@@H](Cc1ccccc1)C(=O)N[C@@H](CCC(=O)O)C(=O)O)C(C)C)C(C)C

DR3 binding data (HLA-DRB1*0301 (DR3)): 0.0033
Compound: CC[C@H](C)[C@H](NC(=O)[C@H](C)NC(=O)[C@H](C)NC(=O)[C@H](CCC(N)=O)NC(=O)[C@H](Cc1ccccc1)NC(=O)[C@H](CCC(=O)O)NC(=O)[C@H](CO)NC(=O)[C@H](CCC(=O)O)NC(=O)[C@H](CC(C)C)NC(=O)[C@H](CC(=O)O)NC(=O)[C@@H]1CCCN1C(=O)[C@@H](N)Cc1ccccc1)C(=O)N[C@@H](CO)C(=O)N[C@@H](CCCNC(=N)N)C(=O)N[C@@H](CCCCN)C(=O)O

IC50 (HLA-A*0301): 306 nM | IC50 (HLA-A*1101): 97 nM | IC50 (HLA-A*3101): 9000 nM | IC50 (HLA-A*3301): > 10000 nM | IC50 (HLA-A*6801): 62 nM | No. of A3 Alleles Crossbound [1]: 3
Compound: CC[C@H](C)[C@H](NC(=O)[C@@H](NC(=O)[C@@H](N)[C@@H](C)O)C(C)C)C(=O)N[C@@H](CC(N)=O)C(=O)N[C@@H](Cc1ccc(O)cc1)C(=O)N[C@H](C(=O)N[C@@H](CC(C)C)C(=O)N[C@@H](Cc1c[nH]c2ccccc12)C(=O)N[C@@H](CCCCN)C(=O)O)[C@@H](C)O

DR3 binding data (HLA-DRB1*0301 (DR3)): 0.0080
Compound: CC[C@H](C)[C@H](NC(=O)[C@H](CCC(N)=O)NC(=O)[C@H](CC(N)=O)NC(=O)[C@H](CC(=O)O)NC(=O)CNC(=O)[C@H](CC(C)C)NC(=O)[C@H](CC(C)C)NC(=O)CNC(=O)[C@H](CC(=O)O)NC(=O)[C@@H](N)Cc1ccc(O)cc1)C(=O)N[C@@H](CCSC)C(=O)N1CCC[C@H]1C(=O)N[C@@H](CCCCN)C(=O)N[C@@H](C)C(=O)NCC(=O)O

DR3 binding data (HLA-DRB1*0301 (DR3)): 0.0270
Compound: CSCC[C@H](NC(=O)[C@@H](NC(=O)[C@H](CCC(N)=O)NC(=O)[C@H](CC(N)=O)NC(=O)[C@H](CC(=O)O)NC(=O)CNC(=O)[C@H](CC(C)C)NC(=O)[C@H](CC(C)C)NC(=O)CNC(=O)[C@H](CC(=O)O)NC(=O)[C@@H](N)Cc1ccc(O)cc1)C(C)C)C(=O)N1CCC[C@H]1C(=O)N[C@@H](CCCCN)C(=O)N[C@H](C(=O)NCC(=O)O)[C@@H](C)O

DR3 binding data (HLA-DRB1*0301 (DR3)): −0.0025
Compound: CC[C@H](C)[C@H](NC(=O)[C@H](CCC(N)=O)NC(=O)[C@H](CC(N)=O)NC(=O)[C@H](CC(=O)O)NC(=O)CNC(=O)[C@H](CC(C)C)NC(=O)[C@H](CC(C)C)NC(=O)CNC(=O)[C@H](CC(=O)O)NC(=O)[C@H](Cc1ccc(O)cc1)NC(=O)[C@H](CO)NC(=O)[C@H](CC(C)C)NC(=O)CNC(=O)[C@H](CC(C)C)NC(=O)[C@@H](N)CS)C(=O)O
